Experimental findings from US9962369B2, “Methods and compositions for transdermal delivery” (SPRAYABLE HOLDINGS, INC., priority 2014, dated 2018) are described below.

The structures appear in SMILES notation.

The nature of this data set: Transdermal delivery of melatonin: plasma level of melatonin after applying composition to skin of a subject. The settings on record: human, topical, 3 mg, Leucine methyl ester hydrochloride 385.28 mM, 0.60 mL applied to skin.

The compound `COc1ccc2[nH]cc(CCNC(C)=O)c2c1` [Melatonin] returned a concentration at 0 h (0 hr after transdermal administration) of 0 ng/mL. The compound also yielded a concentration at 1 h (1 hr after transdermal administration) of 1.5 ng/mL. The compound also came in with a concentration at 2 h (2 hr after transdermal administration) of 1.7 ng/mL. Also, the concentration at 4 h (4 hr after transdermal administration) is 1.8 ng/mL. For the same compound, the concentration at 8 h (8 hr after transdermal administration) was found to be 1.8 ng/mL.
